## Binding of CDR-mutated scFvs to a peptide of the spike HR2 region

The measurements come from Engelhart et al. 2022 (doi:10.1038/s41597-022-01779-4) through the FLAb antibody collection.

Target peptide (SARS-CoV-2 spike, HR2 region): PDVDLGDISGINAS

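Phage display of a naive human antibody library on the peptide gave the parent. The library (AAYL49) carries one to three amino acid substitutions per variant, with no insertions or deletions. In AlphaSeq, yeast of one mating type display the scFv and yeast of the other type display the target. Binding brings cells together so that they mate, and sequencing counts the barcode pairs among the diploids. Scores were corrected for input abundance and mapped to Kd with protein pairs of known affinity run in the same pool. The assay was run in three technical replicates.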

Parent: Ab-14, a human scFv built as VH, a 15-residue (Gly4Ser)3 linker, VL. Only the CDRs of the heavy chain vary.
VH: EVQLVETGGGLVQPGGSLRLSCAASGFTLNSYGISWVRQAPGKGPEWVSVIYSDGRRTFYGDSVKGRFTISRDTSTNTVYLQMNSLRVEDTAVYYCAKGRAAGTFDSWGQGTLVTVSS
VL: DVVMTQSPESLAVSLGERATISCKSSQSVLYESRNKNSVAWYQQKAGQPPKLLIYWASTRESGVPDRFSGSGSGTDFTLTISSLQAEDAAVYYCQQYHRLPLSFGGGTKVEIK

Positions count from residue 1 of the parent VH; T28K puts K in place of T. Values are log10 of the apparent Kd in nM; lower means stronger binding. The mean shown is taken over the replicates in which the pair was detected. A pair that was not seen in any replicate is written "no signal"; this usually means weak binding, but a binder can also be missed. Empty control strains, which show no peptide, gave a signal in 15% of pairings with library AAYL49; the median was 4.06 and 95% of these signals were weaker than 2.83. No background was subtracted. Parent in this assay: reference entry 0.65, copy in this library 4.11 (one replicate of three).

mean log10 Kd (nM),replicates with signal,changes
3.44,1/3,T28K G33F S63Y
5.38,1/3,T28A I51Y Y60D
5.09,1/3,L29H G55T G99H
3.72,3/3,D62C G103Q
no signal,0/3,F27K R57N
2.02,1/3,T28A S53T G103C
no signal,0/3,Y52C D62L A101V
no signal,0/3,Y60I D62R A102R
4.66,1/3,L29R S31D T58W
no signal,0/3,S31R G103Q D106G
2.79,3/3,T28G Y32N G61T
3.38,1/3,S31L I34A G55S
no signal,0/3,Y32R G55S Y60G
0.81,3/3,G26S N30V R100W
no signal,0/3,G26M R57N D62F
4.57,2/3,Y52D Y60T G61R
no signal,0/3,F59L D62L F105L
4.36,1/3,S35F A102W F105G
no signal,0/3,Y52V R57D D106T
3.41,2/3,R56I D62F
no signal,0/3,G33I A101E G103T
no signal,0/3,T58P A101W F105M
3.63,1/3,G26R L29P D106T
3.00,1/3,S31L R56F Y60G
no signal,0/3,F27Y G33Q I34H
4.33,1/3,G55E R56N D106C
3.44,2/3,S31C S53F G103A
no signal,0/3,G33Q D54Y T58H
no signal,0/3,G55L Y60Q G103Q
3.48,1/3,L29V I34F K65E
no signal,0/3,V50D Y52H S63T
no signal,0/3,G33D Y60T
4.31,2/3,V50K I51T S63A
4.13,1/3,G55R R56L F59E
no signal,0/3,I51P D106P
3.15,1/3,Y32L S35A
3.89,1/3,S63Q K65A T104F
no signal,0/3,N30R R57F V64P
1.27,3/3,D62E K65N
no signal,0/3,S35V T104G D106A
4.43,2/3,N30H F59Y G61N
no signal,0/3,D62Q S63N G103M
no signal,0/3,Y32A D54V F59Y
no signal,0/3,G26E I34M S53F
no signal,0/3,S35Y S53N K65C
no signal,0/3,L29M F59G K65G
5.63,3/3,S31P F59C S107V
no signal,0/3,I51H K65S D106R
no signal,0/3,N30A I34G S35N
3.98,1/3,S35L V50I A101S
4.45,3/3,I51E Y52K T104D
2.70,3/3,Y32E R100L
2.39,1/3,V50Q T58S V64W
2.01,3/3,G103T T104S F105K
4.07,1/3,I34P K65R G103S
4.72,2/3,V64S R100Y D106L
3.50,1/3,D62R S63D G103K
no signal,0/3,G33C I51Q
no signal,0/3,N30G S35L T104P
4.59,1/3,S31I I34R A102G
4.17,1/3,G26K L29A G33A
1.10,3/3,V50I S53H R56I
4.56,1/3,S35H Y52E G55Y
3.81,1/3,V64Y A101Q A102P
no signal,0/3,S31Q G33A A101I
no signal,0/3,S31W G33K R100C
no signal,0/3,S31R V50Q F59V
4.92,2/3,I51L V64G A102S
4.72,1/3,F27P R100N F105Y
3.26,3/3,S31A Y60E S63A
3.44,2/3,I34F R56D R100F
no signal,0/3,F27V G61K T104P
4.81,2/3,L29P G55T T58P
no signal,0/3,S35T S53L Y60R
no signal,0/3,I34G G55H S63A
no signal,0/3,G33K I34D D54H
no signal,0/3,V50T K65L D106F

7 of these entries, quoted again:

| changes | mean log10 Kd (nM) | replicates with signal |
|---|---|---|
| G33Q D54Y T58H | no signal | 0/3 |
| V50Q T58S V64W | 2.39 | 1/3 |
| F27P R100N F105Y | 4.72 | 1/3 |
| N30A I34G S35N | no signal | 0/3 |
| S35L V50I A101S | 3.98 | 1/3 |
| D62E K65N | 1.27 | 3/3 |
| S31R V50Q F59V | no signal | 0/3 |